Source: US10208121B2, “Anti-Axl antagonistic antibodies” (BERGEN TEKNOLOGIOVERFORING AS, priority 2014, dated 2019)

System: A549 tumours
Assay: A549 NSCLC xenograft in NUDE mice, FV2-GLYMAXX alone or with Erbitux
Assay type: in vivo, mouse
Conditions: i.p. twice weekly for 3 weeks
Method: FV2-GLYMAXX is a defucosylated antibody with the CDRs and binding specificity of 10G5, but with multiple substitutions in the V-domain framework regions. To evaluate the anti-tumour activity of FV2-GLYMAXX in vivo, we used a mouse xenograft model of human non-small cell lung cancer (NSCLC). The human NSCLC A549 cells (ATCC #CCL-185) A549 cells were propagated in vitro as a monolayer culture in DMEM medium supplemented with 10% FBS, 2 mM L-Glutamine, 100 U/ml penicillin and 100 μg/ml streptomycin, 0.01M HEPES buffer, 0.45% D-(+)-glucose, 1 mM sodium pyruvate. NUDE mice were implanted subcutaneously (s.c.) into the flank with 5×10^6 A549 cells resuspended in serum-free medium/Matrigel (1:1). When the tumour size reached 100 mm^3 (Day 0 in FIG. 18), the animals were randomized and treated either with vehicle (SYNAGIS), Erbitux (20 mg/kg) or FV2-GLYMAXX (15 or 30 mg/kg either alone or in combination. Antibodies were administered by intraperitoneal (i.p.) injections twice weekly for 3 weeks.

cetuximab [Erbitux]
significance of single agent effect compared to isotype control (Synagis): statistically not significant
